Measurements: PubChem BioAssay AID1222 (Sanford-Burnham Center for Chemical Genomics, 2008)
Only a part is listed here, and it is no random draw. Measured potencies and affinities stand elsewhere. Activity calls are given as the source filed them.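 Rule for the calls: active = EC50 below 50 µM in the dose-response confirmation; inactive = the rest.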

Test: protection against thapsigargin-triggered cell killing – 384-well, CSM14.1, ATP luminescence, primary screen (AID 1222);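 note: death triggered by thapsigargin at about 15 µM added after 2 h compound pretreatment; cell ATP read after overnight thapsigargin exposure of roughly 18 to 22 hours; reference of the scale not given here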
Settings: CSM14.1 thapsigargin-induced death rescue, at 20 µM, hits give high values

SMILES	cellular ATP content (survival)
COP1(=S)c2c(C)nn(CCC#N)c2N=C(c2ccc(F)cc2)N1C (stereo unspecified)	inactive: -2.4%
